Test results from publication PMC3510080, “Identification of Compounds with Anti-Proliferative Activity against Trypanosoma brucei brucei Strain 427 by a Whole Cell Viability Based HTS Campaign” (PLoS Neglected Tropical Diseases, 2012).
Where “and” joins values, the source holds several entries; their conditions need not be identical. Equal entries are not always repeated.

Legend:
[1] = test system: T.b. brucei bloodstream form lister 427; assay: T.b. brucei Alamar Blue viability estimation assay (384-well HTS, retest and rescreen); format: cell-based, Trypanosoma brucei brucei
Protocol: T.b. brucei lister 427 cells were maintained in log phase growth in 25 cm^2 tissue culture flasks (Corning, NY, USA) by sub-culturing at either 24 or 48 hour intervals. Cells were grown in HMI-9 medium, supplemented with 10% fetal calf serum (FCS) and 100 IU/ml penicillin/streptomycin (Invitrogen, Carlsbad, California, USA) with incubation at 5% CO2 at 37°C in humidified conditions. HEK293 cells were maintained in high glucose DMEM with L-glutamine, supplemented with 1× non-essential amino acids (NEAA; Invitrogen, USA) and 1 mM sodium pyruvate. Growth conditions were in 5% CO2 at 37°C, under humidified conditions.
All reagent and cell additions were made with a Multidrop liquid handler (Thermo Scientific, Newington, NH, USA) under sterile conditions. […] Wells were read at 535 nm (excitation) and 590 nm (emission) wavelengths on a Victor II Wallac plate reader (PerkinElmer, USA). […]
Primary screening of the library, consisting of 87,296 compounds in two hundred and forty eight 384-well plates, was undertaken in single point against T.b. brucei. […] Test compounds were added to plates in batches of 20 at two hour intervals, to maintain the timing of additions and reads.
Compound activity was calculated as the percentage inhibition in relation to positive and negative controls. […]

T.b. brucei = assay: Determination of the cidal action of compounds (MIC and parasite counts); format: cell-based, Trypanosoma brucei brucei; details: cell counts at 24, 48 and 72 hours (29 hours from Presto Blue)
From the text: The MIC was extrapolated as the minimum concentration at which there was a plateau of activity in the assay (>95% activity).

[2] = test system: L. donovani strain MHOM/ET/67/L82 axenic amastigotes; assay: L. donovani axenic amastigote fluorescence assay; SI versus L6 cells; format: cell-based, Leishmania donovani; details: relative to L6 cells
Protocol: (§1) L6 rat skeletal myoblasts, [29] were purchased from the American Type Culture Collection (ATCC, Rockville, MD, USA; ATCC number CRL 1458). This cell line was used for cytotoxicity testing to calculate an SI against T.b. rhodesiense and screened alongside the T.b. rhodesiense, P. falciparum, T. cruzi and L. donovani assays. L6 were also the host cells for the T. cruzi assay. Assays were performed in 96-well microtiter plates, each well containing 100 µl of RPMI 1640 medium supplemented with 1% L-glutamine (200 mM), 10% FCS, and 4000 L6 cells. Serial drug dilutions of eleven 3-fold dilution steps covering a range from 100 to 0.002 µg/ml were prepared. […] Then the plates were read with a Spectramax Gemini XS microplate fluorometer (Molecular Devices Cooperation, Sunnyvale, CA, USA) using an excitation wavelength of 536 nm and an emission wavelength of 588 nm. Data was analysed using the microplate reader software Softmax Pro (Molecular Devices, USA). […]
Amastigotes of L. donovani strain MHOM/ET/67/L82 were grown in axenic culture at 37°C in SM medium at pH 5.4 supplemented with 10% heat-inactivated FCS under an atmosphere of 5% CO2 in air. […] The plates were then read with a Spectramax Gemini XS microplate fluorometer (Molecular Devices, USA) using an excitation wavelength of 536 nm and an emission wavelength of 588 nm. Data was analysed using the software Softmax Pro (Molecular Devices, USA). […]

T.b. rhodesiense STIB900 = assay: T. b. rhodesiense STIB900 assay (resazurin); SI versus L6 cells; format: cell-based, Trypanosoma brucei rhodesiense; details: relative to L6 cells
Protocol: as §1
T.b. rhodesiense STIB900 stock was isolated in 1982 from a human patient in Tanzania and after several mouse passages cloned and adapted to axenic culture conditions. […] Plates were then read with a Spectramax Gemini XS microplate fluorometer (Molecular Devices, USA) using an excitation wavelength of 536 nm and an emission wavelength of 588 nm. Data was analysed using the microplate reader software Softmax Pro (Molecular Devices, USA). […]

P. falciparum K1 strain = assay: P. falciparum 3H-hypoxanthine incorporation assay; SI versus L6 cells; format: cell-based, Plasmodium falciparum; details: relative to L6 cells
Protocol: as §1
Compounds dissolved in DMSO at 10 mg/ml were added to parasite cultures incubated in RPMI 1640 medium without hypoxanthine, supplemented with HEPES (5.94 g/l), NaHCO3 (2.1 g/l), neomycin (100 U/ml), Albumax (5 g/l) and washed human A^+ red blood cells at 2.5% haematocrit (0.3% parasitaemia). […] IC50 values were calculated from sigmoidal inhibition curves using Microsoft Excel.

[3] = test system: T. cruzi Tulahuen strain C2C4; assay: T. cruzi Tulahuen strain C2C4 β-galactosidase assay; SI versus L6 cells; format: cell-based, Trypanosoma cruzi; details: relative to L6 cells
Protocol: as §1
Rat skeletal myoblasts (L6 cells) were seeded in 96-well microtitre plates at 2000 cells/well in 100 µl RPMI 1640 medium with 10% FCS and 2 mM l-glutamine. […] A colour reaction developed within 2–6 hours that could be read photometrically at 540 nm. Data were transferred into the graphic programme Softmax Pro (Molecular Devices, USA), which calculated IC50 values. […]

## O=C(Nc1ccc(Cl)c(-c2nc3ncccc3o2)c1)c1ccco1 [Compound 7]
[1]
  Selectivity Index T.B: >344
T.b. brucei
  incubation time at the MIC for complete clearance of T.b. brucei parasites: 72 h
[2]
  Selectivity Index L.D: 12.5
T.b. rhodesiense STIB900
  Selectivity Index T.R: 39 and 38.4
P. falciparum K1 strain
  Selectivity Index P.F: 2.92
[3]
  Selectivity Index T.C: 98.6
